Laboratory results published in ChEMBL document CHEMBL3085673, “The design of a novel series of muscarinic receptor antagonists leading to AZD8683, a potential inhaled treatment for COPD” (Bioorg Med Chem Lett, 2013).

By UniProt entry, the sequences of proteins in these tests, tags left out.
UniProt P20309, whole entry: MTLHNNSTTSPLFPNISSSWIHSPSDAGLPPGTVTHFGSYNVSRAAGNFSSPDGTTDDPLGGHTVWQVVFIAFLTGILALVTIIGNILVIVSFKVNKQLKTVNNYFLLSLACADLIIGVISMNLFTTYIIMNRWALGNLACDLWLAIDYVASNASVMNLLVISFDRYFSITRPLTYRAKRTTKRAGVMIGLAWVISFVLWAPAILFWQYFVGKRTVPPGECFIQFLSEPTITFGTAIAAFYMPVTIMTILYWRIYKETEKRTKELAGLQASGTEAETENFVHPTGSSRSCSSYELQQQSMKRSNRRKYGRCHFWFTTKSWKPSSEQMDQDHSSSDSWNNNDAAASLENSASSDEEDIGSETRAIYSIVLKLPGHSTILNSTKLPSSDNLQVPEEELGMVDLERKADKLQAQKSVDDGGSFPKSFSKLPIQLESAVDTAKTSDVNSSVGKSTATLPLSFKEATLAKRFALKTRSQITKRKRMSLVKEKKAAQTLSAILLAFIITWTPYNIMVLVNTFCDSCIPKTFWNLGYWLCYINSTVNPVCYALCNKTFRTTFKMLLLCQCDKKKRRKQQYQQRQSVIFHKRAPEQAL

Target: Muscarinic acetylcholine receptor M3 (Homo sapiens, UniProt P20309)
Assay: Displacement of [3H]NMS from recombinant human M3 receptor expressed in CHO-K1 cells after 16 hrs by SPA method

`O=C(O[C@H]1CN2CCC1CC2)C1(c2cccs2)CCCCCC1` was tested, and the pIC50 was 10.1.
